Data: patent US11357817B2, “Immunoproteasome inhibitor” (The Regents of the University of California, priority 2017, dated 2022)
Like-named read-outs stand apart in the source and are kept apart here.

Chains of the proteins cited; added tags and fusions are not shown. Lines headed by an entry give the natural chain unless they say otherwise; changes in a name come on top.
UniProt A0A5K1K7U1, entry or part of it: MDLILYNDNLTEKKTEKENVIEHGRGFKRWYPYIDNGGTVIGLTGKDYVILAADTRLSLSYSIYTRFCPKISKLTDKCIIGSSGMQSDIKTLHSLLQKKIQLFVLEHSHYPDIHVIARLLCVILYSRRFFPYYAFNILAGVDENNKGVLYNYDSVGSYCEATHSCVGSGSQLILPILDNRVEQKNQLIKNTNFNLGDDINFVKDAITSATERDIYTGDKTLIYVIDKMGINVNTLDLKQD
UniProt Q8IJT1, entry or part of it: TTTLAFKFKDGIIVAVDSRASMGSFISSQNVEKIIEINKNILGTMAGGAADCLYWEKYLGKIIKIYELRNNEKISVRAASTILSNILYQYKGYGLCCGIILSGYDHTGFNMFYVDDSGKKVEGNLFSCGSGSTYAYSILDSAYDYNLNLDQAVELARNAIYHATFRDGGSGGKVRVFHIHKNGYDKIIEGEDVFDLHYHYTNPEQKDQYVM
UniProt P20618: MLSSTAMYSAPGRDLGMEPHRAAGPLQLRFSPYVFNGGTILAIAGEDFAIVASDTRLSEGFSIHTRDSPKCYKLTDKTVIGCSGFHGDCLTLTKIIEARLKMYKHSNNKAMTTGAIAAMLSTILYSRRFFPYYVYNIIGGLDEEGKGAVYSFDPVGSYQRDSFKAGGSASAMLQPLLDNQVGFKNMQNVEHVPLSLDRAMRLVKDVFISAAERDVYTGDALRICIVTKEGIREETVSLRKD
UniProt P28074: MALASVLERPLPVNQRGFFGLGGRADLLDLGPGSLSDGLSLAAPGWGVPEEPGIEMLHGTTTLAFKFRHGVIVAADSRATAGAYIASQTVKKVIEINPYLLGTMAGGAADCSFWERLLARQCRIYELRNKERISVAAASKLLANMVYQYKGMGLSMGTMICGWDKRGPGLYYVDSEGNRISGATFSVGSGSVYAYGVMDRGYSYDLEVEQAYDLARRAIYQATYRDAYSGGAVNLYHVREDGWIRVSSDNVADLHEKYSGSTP
UniProt P28062: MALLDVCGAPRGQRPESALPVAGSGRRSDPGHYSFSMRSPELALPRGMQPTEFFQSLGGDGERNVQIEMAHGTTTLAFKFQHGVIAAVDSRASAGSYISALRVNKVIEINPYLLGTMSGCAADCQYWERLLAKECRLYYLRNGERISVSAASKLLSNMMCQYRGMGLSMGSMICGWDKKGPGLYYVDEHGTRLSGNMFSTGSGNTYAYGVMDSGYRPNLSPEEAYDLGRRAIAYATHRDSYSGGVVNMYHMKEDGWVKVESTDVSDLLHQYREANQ

Columns and labels:
Pf20S = Pf20S (Plasmodium falciparum, UniProt A0A5K1K7U1+Q8IJT1); experiment: Calculation of inhibition constants (inactivation kinetics), Pf20S; format: biochemical
Method: (§1) To calculate inhibition constants, activity assays were performed as described above except using 200 μM Suc-LLVY-AMC substrate (“LLVY” disclosed as SEQ ID NO: 1). The rate of AMC release was calculated in the presence of serial dilution of each inhibitor. The rate of product formation were calculated at 30 min intervals for 4 hours, and normalized to activity DMSO control to calculate inactivation curves. Kobs values for each inhibitor concentration were calculated from inactivation curves, and inhibition constants KI and kinact were calculated by non-linear regression of Kobs and inhibitor concentration using GraphPad Prism 6 software.

c20S = molecular target: T1, c20S (Homo sapiens, UniProt P20618+P28074); experiment: Calculation of inhibition constants (inactivation kinetics), c20S; format: biochemical
T1 construct: purchased Boston Biochem
Method: as §1

P. falciparum Dd2 = P. falciparum Dd2 asexual blood stage SYBR Green I compound sensitivity assay; format: cell-based, Plasmodium falciparum; conditions: for Selectivity Index: P. falciparum activity versus HepG2 activity; for increase in selectivity (index) compared to carmaphycin B: P. falciparum versus HepG2
Method: P. falciparum Dd2 strain parasites were cultured under standard conditions (31), using RPMI media supplemented with 0.05 mg/ml gentamycin, 0.014 mg/mL hypoxanthine (prepared fresh), 38.4 mM HEPES, 0.2% Sodium Bicarbonate, 3.4 mM Sodium Hydroxide, 0.05% O+ Human Serum (Denatured at […] for 40 min and From Interstate Blood Bank, Memphis, Tenn.) and 0.0025% Albumax). Human O+ whole blood was obtained from TSRI blood bank (La Jolla, Calif.). Leukocyte-free erythrocytes are stored at 50% hematocrit in RPMI-1640 screening media (as above, but without O+ human serum and with 2× albumax concentration) at 4° C. for one to three weeks before experimental use. Cultures were monitored every one to two days via Giemsa-stained thin smears.
Compound susceptibility was measured using the malaria SYBR Green I-based fluorescence assay (32). Asynchronous P. falciparum parasites (Dd2 strain) were cultured in standard conditions before being plated for the assays. Each compound was tested over 72 hours in technical duplicates on a twelve-point concentration curve prepared by three-fold dilution from 6.7 μM to 0.11 nM. At least three independent experiments were carried out for IC50 determination. Artemisinin and chloroquine were used as controls. IC50 values were obtained using normalized fluorescence intensity from SYBR green I and analyzed via non-linear variable slope four-parameter regression curve-fitting model in Prism 6 (GraphPad Software Inc).

immunoproteasome (i20S) = immunoproteasome (i20S) (Homo sapiens, UniProt P20618+P28062); experiment: Selective inhibition of immunoproteasome (i20S) over constitutive proteasome (c20S); format: biochemical; conditions: i20S compared to c20S

Row | Compound | kinact (Pf20S) [s⁻¹] | kinact/KI (Pf20S; Pf20S) [M⁻¹ s⁻¹] | kinact/KI (c20S) [M⁻¹ s⁻¹] | kinact (c20S; c20S) [s⁻¹] | kinact/KI (c20S; c20S) [M⁻¹ s⁻¹] | Selectivity Index (P. falciparum Dd2) | increase in selectivity (index) compared to carmaphycin B (P. falciparum Dd2) [fold] | kinact/KI (Pf20S) [M⁻¹ s⁻¹] | increase in selectivity (P. falciparum Dd2; D-amino acid at P3 in place of L-Val of analog 1, comparator not stated) [fold] | selective inhibition of the immunoproteasome over the constitutive proteasome (immunoproteasome (i20S)) [fold]
1 | CCCCCC(=O)N[C@H](C(=O)N[C@@H](CCCC)C(=O)N[C@@H](CC(C)C)C(=O)[C@@]1(C)CO1)C(C)C [Analog 1, (S)-2-((S)-2-hexanamido-3-methylbutanamido)-N—((S)-4-methyl-1-((R)-2-methyloxiran-2-yl)-1-oxopentan-2-yl)hexanamide] | 0.00176 | 767.7 | 1500 | 0.00562 | 1500.3 | 33.33 | 10 | – | – | –
2 | CCCCCC(=O)N[C@@H](C(=O)N[C@@H](CCCC)C(=O)N[C@@H](CC(C)C)C(=O)[C@@]1(C)CO1)C(C)C [Analog 18, (S)-2-((R)-2-hexanamido-3-methylbutanamido)-N—((S)-4-methyl-1-((R)-2-methyloxiran-2-yl)-1-oxopentan-2-yl)hexanamide] | 5.88e-05 | – | 15.8 | 0.00062 | – | 379.20 | 123 | 158 | 100 | 47
